## Apparent affinities of Ab-14 variants for a coronavirus HR2 peptide

All variants were tested on one target, the spike HR2 peptide PDVDLGDISGINAS (SARS-CoV-2).

Each scFv is VH, the linker GGGGSGGGGSGGGGS, VL, as in the parent Ab-14, and differs from it in the CDRs of the light chain only.
VH: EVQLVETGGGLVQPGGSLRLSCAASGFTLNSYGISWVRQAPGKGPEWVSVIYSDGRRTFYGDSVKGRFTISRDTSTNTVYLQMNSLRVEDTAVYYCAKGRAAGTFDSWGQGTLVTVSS
VL: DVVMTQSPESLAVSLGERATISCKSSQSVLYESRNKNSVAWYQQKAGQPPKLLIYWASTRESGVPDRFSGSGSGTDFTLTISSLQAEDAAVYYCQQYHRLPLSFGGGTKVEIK

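Phage display of a naive human antibody library on the peptide gave the parent. These sequences belong to a second round, designed from the earlier measurements on random variants of the parent. Their group label is 14L_En_Gibbs (En: ensemble of fine-tuned language models; Gibbs: Gibbs sampling). AlphaSeq pools MATa yeast showing the antibodies with MATalpha yeast showing the peptide. Pairs that bind mate more often; barcode pairs of the diploids are counted by sequencing. The ratio of observed to expected reads was calibrated, replicate by replicate, on BCL2-family standards whose Kd was known from biolayer interferometry. Mating was done six times.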

The parent's light chain CDRs are KSSQSVLYESRNKNSVA, WASTRES, QQYHRLPLS; each variant's own CDRs replace them letter for letter. Affinities are written as log10 Kd with Kd in nM; a lower number is a better binder. Replicates are averaged; those with no signal do not enter the mean. Where no diploid with the target was found in that replicate, the entry reads "nd": below detection, most likely a poor binder, though not proof of it.

CDR-L1	CDR-L2	CDR-L3	log10 Kd (nM) by replicate	mean, log10 nM	control signals
RYQMDDNSGKGMRNNVA	DGAEVRM	QQYARLPLW	nd / 2.09 / nd / nd / nd / 1.91	2.00	0 of 18
HFAYQLQSLYLSKQNVA	NASTVMT	QHYNRLPLS	2.24 / 1.50 / 2.16 / 2.42 / 1.92 / 1.79	2.00	0 of 18
QFAGAMYHGGNDNQNIA	DAMTYIK	QQYSRLPLI	1.67 / 2.31 / 1.24 / 1.11 / 2.13 / 1.30	1.63	1 of 18 (2.97)
KMNERMRMGENQQHSIA	NAATIVK	QQYHNLPLG	0.04 / -0.08 / -0.23 / 0.09 / -0.45 / 0.12	-0.08	1 of 18 (1.55)
KFSYVKEMVNKDQESIA	DAHTVQE	QQYSRLPLA	0.69 / 0.27 / 0.36 / 0.42 / 0.95 / 1.16	0.64	0 of 18
KAQLDHQGQPKNHNSIA	EGISRTT	QQYFRLPLM	0.16 / 0.17 / 0.11 / 0.13 / 0.04 / 0.31	0.15	0 of 18
QLAVDRLQEYEMGDAIA	GKTTRED	QQYARLPLS	0.18 / 0.31 / -0.21 / -0.09 / 0.05 / 0.19	0.07	0 of 18
NMVEDEAGDQKNSQNIA	SVDQRED	QQYQKLPLM	-0.02 / -0.24 / -0.39 / -0.54 / -0.40 / -0.09	-0.28	0 of 18
KIRVHNLMFYQNENSIA	GQSNRAE	QQYYHLPLT	0.36 / 0.63 / 0.89 / -0.58 / -0.03 / -0.43	0.14	0 of 18
ALSQNGPQQHGMRDSIA	HSDQRLA	QQYYHLPLA	0.55 / 0.14 / 0.08 / 0.28 / 0.26 / 0.13	0.24	1 of 18 (2.26)
QLEVFPLQGGSTTQAIA	DASHRTP	QQYSRLPLV	0.06 / 0.02 / 0.03 / -0.20 / -0.04 / 0.01	-0.02	1 of 18 (2.92)
KLAMILSMEFGTYHGVA	DAEHKAD	QQYNRLPLS	1.03 / 0.94 / 0.98 / 1.38 / 1.70 / nd	1.21	0 of 18
KMKQSMEGNPKNWNSVA	DVDSTKE	QQYARLPLF	1.67 / 1.40 / 0.96 / 0.89 / 0.82 / 1.19	1.15	0 of 18
VLSDTIGNQYDEADNIA	DKTETSV	QQYARLPLS	0.82 / 1.05 / nd / 1.19 / 1.73 / 1.98	1.35	0 of 18
KLVGVSDNDMNPSHNIA	DVSMVDN	QQYHRLPLD	1.09 / 0.43 / 0.75 / 0.46 / 0.68 / 0.97	0.73	1 of 18 (2.45)
HISPMQAMAYEAKNSVA	DTETKLN	QQYIRLPLS	0.33 / 0.03 / 0.08 / 0.16 / 0.48 / 0.22	0.22	1 of 18 (2.79)
KMTKAEQSIGSHQQNIA	DSNKITD	QQYYRLPLT	0.34 / 0.51 / 0.44 / 0.22 / 0.30 / 0.54	0.39	4 of 18 (2.80)
MLDNHQAGYYQKNNNIA	EMNMRRY	QQYGRLPLS	1.54 / 2.14 / 0.76 / 1.20 / 0.90 / 0.79	1.22	0 of 18
KLDMFIPSQWEWDASIA	GTTLRNT	QDYARLPLS	1.22 / 1.71 / 1.71 / 1.90 / nd / 1.67	1.64	0 of 18
MLDEYQMYDAANLNAIA	DANCTMP	QQYYSLPLS	2.10 / 1.23 / 1.53 / 1.65 / 1.07 / 1.22	1.47	1 of 18 (1.90)
HVPNYTENFTSAKQNIA	DQSARTS	QQYDRLPLA	1.58 / 1.05 / 1.20 / 1.07 / 0.40 / 0.87	1.03	0 of 18
GIQSQMDGTSAVKENIA	NEAERLE	QQYQRLPLT	1.51 / 1.02 / 1.76 / 0.65 / 1.67 / 0.75	1.23	0 of 18
KLFDELSSEQVNARNVA	DALATHE	QQYVMLPLS	0.50 / 0.51 / -0.06 / 0.95 / 0.64 / 0.74	0.55	0 of 18
LIKGMVDGQYYWQNNIA	DSEERDR	QQYNQLPLS	0.82 / 2.24 / 2.14 / 1.72 / 2.63 / 0.64	1.70	0 of 18
RMNKHMSGATEAKNSMA	GVEHRAN	QSYHRLPLS	1.77 / 1.36 / 1.35 / 1.05 / 1.53 / 1.64	1.45	0 of 18
QIFFDLFEQGKRSQPIA	GGSMREV	QQYARLPLV	1.45 / 0.97 / 0.57 / 0.66 / 0.64 / 0.79	0.85	0 of 18
KIAMYIEMNAHQNHAMA	EASLKPS	QQYNRLPFS	0.17 / 0.56 / 0.19 / 0.13 / -0.62 / -0.11	0.05	1 of 18 (2.53)
KLQQESNNMNDMQNSVA	EESMVQY	QHYWRLPLT	nd / nd / nd / nd / nd / nd	nd	0 of 18
QISLNGWDGTKKEEAVA	EGTKRDA	QQYSRLPLS	0.25 / 0.24 / 0.19 / 0.00 / 0.28 / 0.10	0.17	0 of 18
HISPMQAMHYEAKNQVA	ETEVKYN	QQYIRLPLS	1.24 / 0.61 / 1.18 / 0.21 / 1.61 / 0.74	0.93	0 of 18
HVSSMDMHDGGIMHSVA	DTKITER	QQYMRLPLS	0.01 / -0.06 / 0.56 / 0.00 / 0.29 / 0.54	0.22	1 of 18 (1.83)

For reference, 2 entries of the list once more:

CDR-L1,CDR-L2,CDR-L3,log10 Kd (nM) by replicate,"mean, log10 nM",control signals
KLDMFIPSQWEWDASIA,GTTLRNT,QDYARLPLS,1.22 / 1.71 / 1.71 / 1.90 / nd / 1.67,1.64,0 of 18
QLAVDRLQEYEMGDAIA,GKTTRED,QQYARLPLS,0.18 / 0.31 / -0.21 / -0.09 / 0.05 / 0.19,0.07,0 of 18

A sequence measured in both rounds can read differently, since the two assays cover different ranges. The authors' rule: three or more of the six replicates give a measured affinity, fewer mean a poor binder. Of ten entries with the parent sequence, four were seen in most replicates (averages 0.34 to 2.37), three in one and three in none, so single entries are noisy. As a blank, each scFv also met three strains without target: over all light chain designs, 4% of these pairings were detected, typically at 2.64 and seldom below 1.59. Also given: how often the same scFv was detected with the empty control strains, with their mean in brackets.

The measurements come from Li et al. 2023 (doi:10.1038/s41467-023-39022-2) through the FLAb antibody collection.